Screens from PubChem.
GRP78 ERSR act – ER stress response induction in glioma; U87-MG GRP78 promoter luciferase reporter, 16 h; Potency, µM, most hits filed as activators; 420,000 compounds, 0.02% hits; AID 602332; also: series mostly up to about 76 µM; nearly all actives have a fitted effect of over 35% in size
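Stably transfected U87-MG human glioma cells carrying a GRP78-based luminescent sensor were seeded at 1000 cells/well, pin-dosed with compounds and incubated 16 h. Luciferase reagent was then added, and end-point luminescence was read after 10 min at room temperature.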
miR-21 reporter – miR-21 reporter, rising signal; HeLa miR-21 FLuc reporter, luciferase, 48 h; Potency, µM (highest dose often 38.3 µM); 340,000 tested, under 10 active; AID 2288; active = well fitted rising curve with a large enough effect; inconclusive = small, poorly fitted or top-dose-only effect; inactive = no such curve, though single readings can be large or run the other way;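 further: miR-21 action dims this reporter so a rising signal means less miR-21 action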
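HeLa cells stably expressing CMV-driven firefly luciferase with a downstream miR-21 binding sequence, endogenously expressing miR-21, were treated with titrations (up to about 40uM final) for 48 hours at 37 degree Celsius. Luciferase luminescence was read after lysis.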
A549 tox – A549 cytotoxicity, counter-screen for Nrf2 inhibitors; A549 ARE-Fluc cells, CellTiter-Fluor viability, 18-24 h; 390,000 compounds, 0.16% hits; Potency, µM (highest dose often 46 µM), usual class: inhibitors
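A549 ARE_Fluc cells in 5% FBS OPTI-MEM were exposed to compounds in concentration-response for 18-24 h at 37 deg C. Viability was read by CellTiter-Fluor fluorescence (Ex 405/Em 525) after 30 min, before the luciferase read.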
Nrf2 block – blocks Nrf2 signaling. A549 ARE-Fluc reporter, luciferase luminescence, 18-24 h. 360,000 compounds, 2.1% hits. Potency, µM (series often up to 46 µM), actives largely listed as inhibitors; also: nearly all actives have a fitted effect of over 60% in size
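Cells were seeded and rested 2 h, then exposed to compounds for 18-24 h. CellTiter-Fluor was read first as a viability measure. BugLite was added 15 min before the final luminescent read of ARE-luciferase activity in A549 cells.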
Nrf2 ARE act – activators of Nrf2 (ARE) signaling | AREc32 ARE-luciferase reporter (MCF7-derived line), luminescence, 24 h | Potency, µM (doses to about 46.1 µM), usual class: activators | 410,000 compounds, 0.31% hits | AID 624171; also: nearly all actives have a fitted effect of over 65% in size
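ARE activation measured as luciferase luminescence (Steady-Glo, 30 min RT) in AREc32_Fluc cells after 24 hr compound exposure at 37 deg C, 5% CO2; cells seeded overnight at 1000/well in OPTI-MEM, 5% FBS.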
TSG101-PTAP inh – blocks PTAP/TSG101 interaction to inhibit HIV-1 budding; Potency, µM (highest dose often 115 µM), hits mostly inhibitors; AID 493005; Fluorescence polarization, FITC-PTAP peptide / Tsg101 binding; 340,000 tested, under 10 active; active = well fitted inhibition curve with a large enough effect in the main read-out, with a control signal flat, not every such curve was filed as active; inconclusive = small, poorly fitted or top-dose-only effect, or effect the other way, or a change in a side signal; inactive = no such curve, though single readings can be large or run the other way
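Steps: Tsg101 binding domain dispensed (10 uM final), compounds pinned in DMSO, FITC-labeled PTAP-motif peptide added (50 nM final); after 20 min binding at room temperature, polarization measured.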
A number is an active result; 0 = inactive; ? = inconclusive; - = no result given. In the library only some 2.1% were active in any assay of this set; here they are far more common. Unless noted, calls follow the shape of the dose curve; as a rule, active = well fitted curve in the direction sought with a large enough effect; inconclusive = small, poorly fitted or top-dose-only effect, or another doubt; inactive = no such curve, though single readings can be large; an effect the other way counts as inactive or inconclusive.

SMILES	GRP78 ERSR act	miR-21 reporter	A549 tox	Nrf2 block	Nrf2 ARE act	TSG101-PTAP inh
COCCn1c(=S)[nH]c2cc(C(=O)N3CCN(c4cccc(Cl)c4)CC3)ccc2c1=O	0	0	?	20.6µM	0	0
COc1cccc(-c2cc3c(c(OC)c2)OCCN(Cc2cccn2-c2ccccn2)C3)c1	0	-	-	-	-	-
CCOC(=O)c1cc(C)n(Cc2cccc(OC)c2OC)c1C	0	0	0	23.1µM	0	0
OC(C[n+]1cccc(Br)c1)c1ccccc1 (stereo not given)	0	-	-	-	-	-
CCCC(=O)N1CCN(c2ccc(NC(=O)c3ccc([N+](=O)[O-])o3)cc2Cl)CC1	0	0	?	16.4µM	?	0
COc1ccccc1C1CN(Cc2cccc(OCCO)c2)Cc2ccccc2O1 (stereo not given)	0	-	-	-	-	-
CC(C)(C)c1ccc(Oc2ccc(NC(=O)c3cccs3)cn2)cc1	0	?	0	16.4µM	0	0
COc1ccc(NC(=O)c2cccs2)cn1	0	0	0	?	0	0
Cc1ccc(S(=O)(=O)c2c(N)n(Cc3ccco3)c3nc4ccccc4nc23)cc1C	0	0	?	?	0	0
Nc1c(S(=O)(=O)c2ccccc2)c2nc3ccccc3nc2n1Cc1ccco1	0	0	?	25.9µM	0	0
COc1ccc(CN(C(=O)CSc2nnc(-c3c[nH]c4ccccc34)o2)c2ccc(F)cc2)cc1OC	0	0	?	11.6µM	0	0
O=C(CSc1nnc(Cn2nnc3ccccc32)o1)N(Cc1ccc(F)cc1)c1ccccc1	0	0	?	5.8µM	0	0
COc1ccc(N(Cc2ccccc2)C(=O)CSc2nnc(Cn3nnc4ccccc43)o2)cc1	0	0	0	?	0	0
C/C(=N\Nc1ccc(S(=O)(=O)Nc2ccccc2)cc1[N+](=O)[O-])c1ccncc1	-	0	-	-	-	-
COc1ccc(NS(=O)(=O)c2ccc(N/N=C(\C)c3ccncc3)c([N+](=O)[O-])c2)cc1	0	0	?	20.6µM	0	0
O=C(C1CCCN(S(=O)(=O)c2cccc3nsnc23)C1)N1CCc2ccccc2C1 (stereo not given)	0	0	0	14.6µM	0	0
O=C(C1CCCN(S(=O)(=O)c2cccc3nsnc23)C1)N1CCCCCC1 (stereo not given)	0	0	0	0	0	0
Cc1cc(C)c2c(c1)/C(=C/C(=O)c1ccc(Br)s1)C(=O)N2	0	0	?	9.2µM	0	0
COc1cccc(C(=O)NCC2Cc3cccc(-c4cccnc4)c3O2)c1 (stereo not given)	0	-	-	-	-	-
CN(C)c1ccc(CCC2C=Cc3ccccc32)cc1 (stereo not given)	0	-	-	-	-	-
CCN(CC)c1ccc(/C=N/Nc2nc3ccccc3[nH]2)c(O)c1	0	?	?	25.9µM	0	0
C(=N\Nc1nc2ccccc2[nH]1)/c1ccc2c(c1)OCCO2	0	0	?	2.59µM	0	0
C(=N\Nc1nc2ccccc2[nH]1)/c1ccccn1	0	?	?	?	0	0
Fc1ccccc1-c1ccc(/C=N/Nc2nc3ccccc3[nH]2)o1	0	0	0	?	11.2µM	0
C(=N\Nc1ccc2ccccc2n1)/c1ccc2c(c1)OCCO2	0	?	0	?	0	0
SMILES	GRP78 ERSR act	miR-21 reporter	A549 tox	Nrf2 block	Nrf2 ARE act	TSG101-PTAP inh
COc1cc(OC)c(OC)cc1/C=N/Nc1nc2ccccc2[nH]1	0	0	0	0	0	0
S=C(N/N=C/c1ccc2ncccc2c1)Nc1ccccc1	0	0	0	13µM	0	0
COc1cccc(-c2cc3c(c(OC)c2)OCCN(S(=O)(=O)c2ccccc2OC(F)(F)F)C3)n1	0	-	-	-	-	-
CCOc1cc(/C=N/Nc2nc3ccccc3[nH]2)cc(Br)c1OCC(=O)N(C)C	0	0	0	18.4µM	0	0
COc1cc(/C=N\Nc2nc3ccccc3[nH]2)cc(OC)c1OC	0	0	0	5.8µM	0	0
C(=N\Nc1nc2ccccc2[nH]1)/c1ccc2ncccc2c1	0	0	0	20.6µM	0	0
COc1ccc(/C=N/Nc2nc3ccccc3[nH]2)cc1OC	0	0	0	0	0	0
